In patent publication US10016408B2, “Chemokine CXCR4 receptor modulators and uses related thereto” (EMORY UNIVERSITY, priority 2010, dated 2018):
Like-named read-outs stand apart in the source and are kept apart here.

Tested on: HIV-1 IIIB
Experiment: MAGI-CXCR4 HIV-1 IIIB antiviral assay (β-galactosidase reporter)
Details: MAGI-CXCR4 cells
Description: Example 2: MAGI-CXCR4 HIV-1 IIIB Assay Procedure
MAGI-CXC4 cells (obtained from the NIH AIDS Research and Reference Reagent Program) are passed into T-75 flasks prior to use in the antiviral assay. MAGI-CXCR4 cells are derived from HeLa-CD4-LTR-β-gal cells. The cells have been engineered to express high levels of CD4 and […] and contain one copy of the HIV-1 LTR promoter driving expression of the β-galactosidase gene upon HIV-1 Tat transactivation. On the day preceding the assay, the cells are plated at 1.0×10^4 per well and incubated at 37° C. overnight. Total cell and viability quantification is performed using a hemacytometer and trypan blue exclusion. […]
Compounds are evaluated at one or two concentrations (e.g., for initial screening) or in dose-response at six concentrations (triplicate wells/concentration). […] The cultures are incubated for 48 hours or 6 days (depending on compound or client requirements) after which antiviral efficacy is measured as the inhibition of β-galactosidase reporter expression and cytotoxicity is monitored by MTS staining.
A chemiluminescent endpoint is used to determine the extent of β-galactosidase expression as a measure of HIV-1 infection of the cells. […] Thus there is a direct relationship between the level of HIV-1 infection and the level of β-galactosidase detected in the cells. […]

NCCCCN(CC1CN(Cc2ccccc2)CCN1)C1CCCc2cccnc21 (centres unmarked) [Compound 8]
IC50 (read-out: HIV IC50, further testing): 150 nM | IC50 (read-out: MAGI HIV IIIB IC50): 150 nM
